Columns and labels:
[1] = biological target: T1, full-length B-Catenin (Uniprot ID P35222) (Homo sapiens, UniProt P35222); experiment: biochemical; format: binding; conditions: beta-Catenin FP IC50 (nM), competition fluorescence polarization
T1 construct: 10 nM full-length B-Catenin (Uniprot ID P35222)

The chains behind the UniProt entries cited, without tags or fusion partners.
UniProt P35222, whole entry: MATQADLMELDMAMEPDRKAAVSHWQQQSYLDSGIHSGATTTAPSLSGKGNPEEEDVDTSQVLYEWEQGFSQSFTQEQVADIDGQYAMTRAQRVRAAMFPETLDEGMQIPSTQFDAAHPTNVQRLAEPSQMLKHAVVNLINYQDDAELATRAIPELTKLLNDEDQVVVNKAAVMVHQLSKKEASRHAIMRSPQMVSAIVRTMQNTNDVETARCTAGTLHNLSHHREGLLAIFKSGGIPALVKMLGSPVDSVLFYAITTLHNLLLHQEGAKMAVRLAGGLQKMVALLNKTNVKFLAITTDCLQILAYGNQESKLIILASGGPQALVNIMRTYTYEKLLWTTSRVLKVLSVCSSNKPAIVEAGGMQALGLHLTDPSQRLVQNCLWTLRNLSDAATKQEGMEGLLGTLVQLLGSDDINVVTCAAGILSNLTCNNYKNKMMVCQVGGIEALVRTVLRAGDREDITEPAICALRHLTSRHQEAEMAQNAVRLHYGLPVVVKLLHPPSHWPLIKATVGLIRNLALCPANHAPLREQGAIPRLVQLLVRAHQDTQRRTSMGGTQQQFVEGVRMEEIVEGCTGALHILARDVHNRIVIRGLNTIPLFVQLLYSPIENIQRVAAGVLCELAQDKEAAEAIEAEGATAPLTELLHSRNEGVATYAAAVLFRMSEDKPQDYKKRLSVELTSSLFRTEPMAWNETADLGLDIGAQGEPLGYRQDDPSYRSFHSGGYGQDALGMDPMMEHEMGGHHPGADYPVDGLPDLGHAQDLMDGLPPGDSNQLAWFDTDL

[2] = biological target: beta-catenin/TCF4 interaction (Homo sapiens, UniProt P35222); experiment: cell-based; design: host or cells: HEK293; conditions: NanoBRET Abs IC50 (uM), absolute IC50

Row | SMILES | IC50 [1] | IC50 [2]
1 | CC(=O)N1CCC[C@]12CC=CCCCC1(CCCC=CCCCOC(=O)N3CC[C@@]4(C3)NC(=O)[C@H](CCCCNC(=O)CC[C@@H](C(=O)N[C@H](C(=O)NC(C)(C)C(N)=O)[C@@H](C)O)NC(=O)[C@H](Cc3csc5ccccc35)NC(=O)[C@H](Cc3ccsc3)NC4=O)NC(=O)[C@H](Cc3ccccc3)NC(=O)[C@H](C)NC(=O)C(C)(C)NC(=O)[C@H](Cc3cccc(C(=O)O)c3)NC(=O)[C@H](CC(=O)O)NC1=O)NC(=O)[C@H](CC(C)(C)C)NC(=O)[C@H](CC(=O)O)NC2=O (single isomer, unassigned) [I-411, Ac-PL3-Asp-Npg-B5-Asp-3COOHF-Aib-Ala-Phe-Lys*3-PyrS2-3Thi-BztA-GlnR*3-Thr-Aib-NH2] | < 50 nM | 1.5 to 3 µM
2 | C[C@H](NC(=O)[C@@H]1CCC(=O)NCCCC[C@@H]2NC(=O)[C@H](Cc3ccccc3)NC(=O)[C@H](C)NC(=O)C(C)(C)NC(=O)[C@H](Cc3cccc(C(=O)O)c3)NC(=O)[C@H](CC(=O)O)NC(=O)[C@](C)(NC(=O)[C@@H]3CC=CCCC(=O)N4CCC[C@@]4(C)C(=O)N[C@@H](CC(=O)O)C(=O)N3)CCCCCCCCOC(=O)N3CC[C@@](C3)(NC2=O)C(=O)N[C@@H](Cc2ccsc2)C(=O)N[C@@H](Cc2csc3ccccc23)C(=O)N1)C(N)=O (single isomer, unassigned) [I-428, 4pentenyl-MePro-Asp-AllylGly-R5-Asp-3COOHF-Aib-Ala-Phe-Lys*3-PyrS2-3Thi-BztA-GlnR*3-Ala-NH2] | < 50 nM | > 10 µM
3 | C[C@H](NC(=O)[C@@H]1CCC(=O)NCCCC[C@@H]2NC(=O)[C@H](Cc3ccccc3)NC(=O)[C@H](C)NC(=O)C(C)(C)NC(=O)[C@H](Cc3cccc(C(=O)O)c3)NC(=O)[C@H](CC(=O)O)NC(=O)[C@](C)(NC(=O)[C@@H]3CC=CCCCC(=O)N4CCC[C@@]4(C)C(=O)N[C@@H](CC(=O)O)C(=O)N3)CCCCCCCCOC(=O)N3CC[C@@](C3)(NC2=O)C(=O)N[C@@H](Cc2ccsc2)C(=O)N[C@@H](Cc2csc3ccccc23)C(=O)N1)C(N)=O (single isomer, unassigned) [I-431, 5hexenyl-MePro-Asp-AllylGly-R5-Asp-3COOHF-Aib-Ala-Phe-Lys*3-PyrS2-3Thi-BztA-GlnR*3-Ala-NH2] | < 50 nM | > 10 µM
4 | CC(=O)N1CCC[C@]12CC=CCCCC1(CCCC=CCCCOC(=O)N3CC[C@@]4(C3)NC(=O)[C@H](CCCCNC(=O)CC[C@@H](C(=O)N[C@@H](C)C(N)=O)NC(=O)[C@H](Cc3csc5ccccc35)NC(=O)[C@H](Cc3ccsc3)NC4=O)NC(=O)[C@H](Cc3ccccc3)NC(=O)[C@H](C(C)C)NC(=O)C(C)(C)NC(=O)[C@H](Cc3cccc(C(=O)O)c3)NC(=O)[C@H](CC(=O)O)NC1=O)NC(=O)[C@H](CC(C)(C)C)NC(=O)[C@H](CC(=O)O)NC2=O (single isomer, unassigned) [I-447, Ac-PL3-Asp-Npg-B5-Asp-3COOHF-Aib-Val-Phe-Lys*3-PyrS2-3Thi-BztA-GlnR*3-Ala-NH2] | < 50 nM | > 10 µM
5 | CC(=O)N1CCC[C@]12CC=CCCCC1(CCCC=CCCCOC(=O)N3CC[C@@]4(C3)NC(=O)[C@H](CCCCNC(=O)CC[C@@H](C(=O)N[C@@H](C)C(N)=O)NC(=O)[C@H](Cc3csc5ccccc35)NC(=O)[C@H](Cc3ccsc3)NC4=O)NC(=O)[C@H](Cc3ccccc3)NC(=O)[C@H](CC(C)C)NC(=O)C(C)(C)NC(=O)[C@H](Cc3cccc(C(=O)O)c3)NC(=O)[C@H](CC(=O)O)NC1=O)NC(=O)[C@H](CC(C)(C)C)NC(=O)[C@H](CC(=O)O)NC2=O (single isomer, unassigned) [I-449, Ac-PL3-Asp-Npg-B5-Asp-3COOHF-Aib-Leu-Phe-Lys*3-PyrS2-3Thi-BztA-GlnR*3-Ala-NH2] | < 50 nM | > 10 µM
6 | CC(=O)N1CCC[C@]12CC=CCCCC1(CCCC=CCCCOC(=O)N3CC[C@@]4(C3)NC(=O)[C@H](CCCCNC(=O)CC[C@@H](C(=O)N[C@@H](C)C(N)=O)NC(=O)[C@H](Cc3csc5ccccc35)NC(=O)[C@H](Cc3ccsc3)NC4=O)NC(=O)[C@H](Cc3ccccc3)NC(=O)[C@H](CCC(N)=O)NC(=O)C(C)(C)NC(=O)[C@H](Cc3cccc(C(=O)O)c3)NC(=O)[C@H](CC(=O)O)NC1=O)NC(=O)[C@H](CC(C)(C)C)NC(=O)[C@H](CC(=O)O)NC2=O (single isomer, unassigned) [I-451, Ac-PL3-Asp-Npg-B5-Asp-3COOHF-Aib-Gln-Phe-Lys*3-PyrS2-3Thi-BztA-GlnR*3-Ala-NH2] | < 50 nM | > 10 µM
7 | CC(=O)N1CCC[C@]12CC=CCCCC1(CCCC=CCCCOC(=O)N3CC[C@@]4(C3)NC(=O)[C@H](CCCCNC(=O)CC[C@@H](C(=O)N[C@@H](C)C(N)=O)NC(=O)[C@H](Cc3csc5ccccc35)NC(=O)[C@H](Cc3ccsc3)NC4=O)NC(=O)[C@H](Cc3ccccc3)NC(=O)[C@H](CCCCN)NC(=O)C(C)(C)NC(=O)[C@H](Cc3cccc(C(=O)O)c3)NC(=O)[C@H](CC(=O)O)NC1=O)NC(=O)[C@H](CC(C)(C)C)NC(=O)[C@H](CC(=O)O)NC2=O (single isomer, unassigned) [I-454, Ac-PL3-Asp-Npg-B5-Asp-3COOHF-Aib-Lys-Phe-Lys*3-PyrS2-3Thi-BztA-GlnR*3-Ala-NH2] | < 50 nM | > 10 µM
8 | CC(=O)N1CCC[C@]12CC=CCCCC1(CCCC=CCCCOC(=O)N3CC[C@@]4(C3)NC(=O)[C@H](CCCCNC(=O)CC[C@@H](C(=O)N[C@H](CC(C)C)C(=O)N[C@@H](CO)C(=O)N[C@@H](CC(C)C)C(N)=O)NC(=O)[C@H](Cc3csc5ccccc35)NC(=O)[C@H](Cc3ccsc3)NC4=O)NC(=O)[C@H](Cc3ccccc3)NC(=O)[C@H](C)NC(=O)C(C)(C)NC(=O)[C@H](Cc3cccc(C(=O)O)c3)NC(=O)[C@H](CC(=O)O)NC1=O)NC(=O)[C@H](CC(C)(C)C)NC(=O)[C@H](CC(=O)O)NC2=O (single isomer, unassigned) [I-467, Ac-PL3-Asp-Npg-B5-Asp-3COOHF-Aib-Ala-Phe-Lys*3-PyrS2-3Thi-BztA-GlnR*3-dLeu-Ser-Leu-NH2] | < 50 nM | 1.5 to 3 µM

Next, values leading:

Row | IC50 [1] | IC50 [2] | SMILES
9 | < 50 nM | > 10 µM | C[C@H](NC(=O)[C@@H]1CCC(=O)NCCCC[C@@H]2NC(=O)[C@H](Cc3ccccc3)NC(=O)[C@H](C)NC(=O)C(C)(C)NC(=O)[C@H](Cc3cccc(C(=O)O)c3)NC(=O)[C@H](CC(=O)O)NC(=O)[C@](C)(NC(=O)[C@@H]3CC=CCCC(=O)N4CCC[C@@]4(C)C(=O)N[C@@H](CC(=O)O)C(=O)N3)CCCC=CCCCOC(=O)N3CC[C@@](C3)(NC2=O)C(=O)N[C@@H](Cc2ccsc2)C(=O)N[C@@H](Cc2csc3ccccc23)C(=O)N1)C(N)=O (single isomer, unassigned) [I-427, 4penteny1-MePro-Asp-AllylGly-R5-Asp-3COOHF-Aib-Ala-Phe-Lys*3-PyrS2-3Thi-BztA-GlnR*3-Ala-NH2]
10 | < 50 nM | 3 to 10 µM | CC(=O)N1CCC[C@]12CC=CCCCC1(CCCC=CCCCOC(=O)N3CC[C@@]4(C3)NC(=O)[C@H](CCCCNC(=O)CC[C@@H](C(=O)N[C@@H](C)C(N)=O)NC(=O)[C@H](Cc3csc5ccccc35)NC(=O)[C@H](Cc3ccsc3)NC4=O)NC(=O)[C@H](Cc3ccccc3)NC(=O)[C@H](C)NC(=O)[C@@](C)(CO)NC(=O)[C@H](Cc3cccc(C(=O)O)c3)NC(=O)[C@H](CC(=O)O)NC1=O)NC(=O)[C@H](CC(C)(C)C)NC(=O)[C@H](CC(=O)O)NC2=O (single isomer, unassigned) [I-436, Ac-PL3-Asp-Npg-B5-Asp-3COOHF-DaMeS-Ala-Phe-Lys*3-PyrS2-3Thi-BztA-GlnR*3-Ala-NH2]
11 | < 50 nM | > 10 µM | CC(=O)N1CCC[C@]12CC=CCCCC1(CCCC=CCCCOC(=O)N3CC[C@@]4(C3)NC(=O)[C@H](CCCCNC(=O)CC[C@@H](C(=O)N[C@@H](C)C(N)=O)NC(=O)[C@H](Cc3csc5ccccc35)NC(=O)[C@H](Cc3ccsc3)NC4=O)NC(=O)[C@H](Cc3ccccc3)NC(=O)C(C)(C)NC(=O)[C@H](C)NC(=O)[C@H](Cc3cccc(C(=O)O)c3)NC(=O)[C@H](CC(=O)O)NC1=O)NC(=O)[C@H](CC(C)(C)C)NC(=O)[C@H](CC(=O)O)NC2=O (single isomer, unassigned) [I-441, Ac-PL3-Asp-Npg-B5-Asp-3COOHF-Ala-Aib-Phe-Lys*3-PyrS2-3Thi-BztA-GlnR*3-Ala-NH2]
12 | < 50 nM | > 10 µM | CC(=O)N1CCC[C@]12CC=CCCCC1(CCCC=CCCCOC(=O)N3CC[C@@]4(C3)NC(=O)[C@H](CCCCNC(=O)CC[C@@H](C(=O)N[C@@H](C)C(N)=O)NC(=O)[C@H](Cc3csc5ccccc35)NC(=O)[C@H](Cc3ccsc3)NC4=O)NC(=O)[C@H](Cc3ccccc3)NC(=O)[C@H](C)NC(=O)[C@@](C)(Cc3ccccc3)NC(=O)[C@H](Cc3cccc(C(=O)O)c3)NC(=O)[C@H](CC(=O)O)NC1=O)NC(=O)[C@H](CC(C)(C)C)NC(=O)[C@H](CC(=O)O)NC2=O (single isomer, unassigned) [I-456, Ac-PL3-Asp-Npg-B5-Asp-3COOHF-aMeDF-Ala-Phe-Lys*3-PyrS2-3Thi-BztA-GlnR*3-Ala-NH2]
13 | < 50 nM | 1.5 to 3 µM | CC(=O)N1CCC[C@]12CC=CCCCC1(CCCC=CCCCOC(=O)N3CC[C@@]4(C3)NC(=O)[C@H](CCCCNC(=O)CC[C@@H](C(=O)N[C@@H](CC(C)C)C(=O)N[C@@H](CO)C(=O)N[C@@H](CC(C)C)C(N)=O)NC(=O)[C@H](Cc3csc5ccccc35)NC(=O)[C@H](Cc3ccsc3)NC4=O)NC(=O)[C@H](Cc3ccccc3)NC(=O)[C@H](C)NC(=O)C(C)(C)NC(=O)[C@H](Cc3cccc(C(=O)O)c3)NC(=O)[C@H](CC(=O)O)NC1=O)NC(=O)[C@H](CC(C)(C)C)NC(=O)[C@H](CC(=O)O)NC2=O (single isomer, unassigned) [I-465, Ac-PL3-Asp-Npg-B5-Asp-3COOHF-Aib-Ala-Phe-Lys*3-PyrS2-3Thi-BztA-GlnR*3-Leu-Ser-Leu-NH2]

Reference: US20240360179A1, “STAPLED PEPTIDES AND METHODS THEREOF” (FOG PHARMACEUTICALS, INC., priority 2021, published 2024)
